The source of these data is patent US20190369122A1, “METABOLIC DISORDERS” (priority 2016, published 2019).

The series deals with CONVR mice. Put plainly: Metabolic cages (PhenoMaster) in CONVR mice. As to conditions: 100 μg i.p. twice a day for 3 days. How it is done: Mice were singly housed for two days before being transferred to the PhenoMaster cages, and allowed an additional 2 days to acclimatize to the new cage before taking measurements. Parameters were automatically measured every 15 min for 5 days. During the measurements, the mice had free access to water and food. […] Oxygen consumption (VO2) was calculated from measurements of oxygen and carbon dioxide concentration in the reference cage compared to the sample cage. Measurements of oxygen consumption and energy expenditure were adjusted to lean body mass, which was determined by MRI (EchoMRI, Houston, Tex., USA).

As for `O=C(O)CCc1cnc[nH]1` [imidazole propionate], the “body weight, liver and WAT weight or food intake” value is reported as “without any significant effect”.
